The values that follow are results of earlier work, collected in publication PMC7461116, “Synthesis, Anticonvulsant and Antinociceptive Activity of New Hybrid Compounds: Derivatives of 3-(3-Methylthiophen-2-yl)-pyrrolidine-2,5-dione” (International Journal of Molecular Sciences, 2020).

This series relates to motor impairment on rotarod. Particulars: mice ip, reference AEDs; cited from earlier work.

For `CCCC(CCC)C(=O)O` [VPA, valproic acid], the “NT TD50” value was 430.8 (407.9–454.9) mg/kg.
